The subject of test [1] is BaF3 cells expressing FIG-ROS1(S). In words: MTS cell growth assay, BaF3 expressing FIG-ROS1(S). The note with it: FIGS. 9A/9B, 0-1.0 uM, same concentration of each.
Test [2] has as its system BaF3 cells transduced with FLT3/ITD. The settings on record: FIGS. 9A/9B; 0-1.0 uM; negative control BaF3 FLT3-ITD.
In test [3] the test system is BaF3 cells expressing myc-tagged neomycin (Neo-Myc). In words: MTS cell growth assay, BaF3 expressing myc-tagged neomycin. The class given is cell-based. The settings on record: FIGS. 9A/9B; 0-1.0 uM; negative control BaF3 neo-myc. (In general: Tetrazolium assays rely on reduction of a dye to a coloured formazan, in cell work by metabolically active cells.)
Test [4] deals with BaF3 cells expressing FIG-ROS1(L). In words: MTS cell growth assay, BaF3 expressing FIG-ROS1(L). The settings on record: FIGS. 9A/9B, 0-1.0 uM, same concentration of each.

Results on 1 compound are retold here after patent US20220267854A1, “EGFR AND ROS1 KINASE IN CANCER” (CELL SIGNALING TECHNOLOGY, INC., priority 2012, published 2022).

Molecules are shown by their SMILES.

With `C[C@@H](Oc1cc(-c2cnn(C3CCNCC3)c2)cnc1N)c1c(Cl)ccc(F)c1Cl` [crizotinib], the “cellular growth response, TAE-684 compared with crizotinib” value in test [1] and in test [4] was “more sensitive to TAE-684 than to crizotinib” in each case. In addition, the “cellular growth response, compared with FIG-ROS1 BaF3 and Karpas 299 cells” value in test [2] and in test [3] was “less sensitive” throughout.
